The text below walks through data of patent publication US10898481B2 (priority 2018, dated 2021).

Sequences of proteins named here, by UniProt entry; tags and fusion partners are left off. A change or cut given only in a name is not applied to a line headed by its entry.
UniProt P29275: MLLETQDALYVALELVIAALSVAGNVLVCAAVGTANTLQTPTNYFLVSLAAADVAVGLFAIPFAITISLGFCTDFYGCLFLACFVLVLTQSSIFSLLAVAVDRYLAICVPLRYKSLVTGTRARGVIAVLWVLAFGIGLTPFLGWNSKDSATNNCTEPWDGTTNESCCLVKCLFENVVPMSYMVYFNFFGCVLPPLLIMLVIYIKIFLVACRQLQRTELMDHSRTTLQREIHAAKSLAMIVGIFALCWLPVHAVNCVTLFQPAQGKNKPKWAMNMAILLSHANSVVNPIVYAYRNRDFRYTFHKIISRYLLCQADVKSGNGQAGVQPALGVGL

For one test, the target named is hA2a (Homo sapiens (Human), UniProt P29274). The test can be described thus: Radioligand binding to hA2a membrane with [3H]-CGS21680. Particulars: read-out: Binding Affinity (IC50 nM) hA2a. An excerpt: (§1) The empty boxes in the tables below indicate data not collected yet.
A further test concerns the target hA2b (Homo sapiens (Human), UniProt P29275). The test can be described thus: Radioligand binding to hA2b membrane with [3H]-DPCPX. Particulars: read-out: Binding Affinity (IC50 nM) hA2b.
From the text: as §1

As usually defined, the IC50 is the concentration that inhibits the measured activity by half. For `Cc1cc(-c2nc(C(=O)NCc3ccccc3OC(F)(F)F)c(N)nc2-c2ccc(F)cc2)cc(C)n1` [Example 65, 3-amino-6-(2,6-dimethylpyridin-4-yl)-5-(4-fluorophenyl)-N-(2-(trifluoromethoxy)benzyl)pyrazine-2-carboxamide], the IC50 on hA2a worked out at 13 nM; at hA2b, 4420 nM.
